Screening results: PubChem BioAssay, National Center for Advancing Translational Sciences (NCATS)
Shown are actives, neighbours in structure and some others; about 0.62% of the full set was active somewhere.
Rango dissoc inh: inhibitors of RanGTP-induced Rango-importin beta complex dissociation. O95149+P62826. Biochemical FRET Rango-importin beta, RanGTP-induced dissociation. Potency, µM (doses to about 46.1 µM), for the others: top-dose activity change, negative = inhibition. 340,000 tested, 0.071% active; further: potency means the concentration at half of the fitted maximal effect; % of control where 0% means no effect; nearly all actives have a fitted effect of over 45% in size
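Two FRET readings bracket the reaction: one 5 min after compound meets Rango–importin beta, another 45 min after RanGTP-RCC1 (0.6 uM Ran, 0.2 uM RCC1, 2 mM GTP) is added. Only the second defines inhibition.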
p53 reactivator: re-activators of mutant p53 | H1299 p53-A138V BP100-luciferase reporter, luminescence, 24 h | Potency, µM (series often up to 92.2 µM), for the others: top-dose activity change, positive = activation, usual class: activators | 320,000 tested, 0.063% active | AID 504706; active means well fitted activation curve with a large enough effect; inconclusive means small, poorly fitted or top-dose-only effect; inactive means no such curve, though single readings can be large or run the other way; further: potency means the concentration at half of the fitted maximal effect; % of control where 0% means no effect; nearly all actives have a fitted effect of over 45% in size
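p53-null H1299 cells stably carrying temperature-sensitive p53-A138V and a BP100-luciferase reporter were pinned with compounds (4-point, 1:5 series) and held 24 hrs at 37 deg C. Luminescence was read 10 min after detection reagent.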
Rango-impB inh: inhibitors of Rango-importin beta complex formation. Potency, µM (top dose mostly 92.2 µM), for inactives: top-dose inhibition of complex formation. Rango CFP/YFP FRET sensor + importin beta, 45 min. 340,000 tested, 0.031% active;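 further: potency means the concentration at half of the fitted maximal effect; 0% = DMSO wells and 100% = buffer wells lacking importin beta; nearly all actives have a fitted effect of over 15% in size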
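FRET biosensor Rango (snurportin 1 IBB between N-terminal EYFP and C-terminal Cerulean), 50 nM in PBS/1 mM DTT/0.02% Tween-20/0.1% BSA, preincubated 5 min RT with compound; 0.125 microM importin beta added, 45 min RT, CFP/YFP FRET ratio read.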
Akt phos inh: blocks phosphorylation of Akt | activity change, % for hits at 50 µM | Neuro2A IGF-stimulated pAkt S473 HTRF, 20 min; stronger effect = lower value | AID 651550 | 360,000 tested, 0.32% active; in the data active means activity change below about -80%; inconclusive means mostly about -51% to -80%; further: on the % scale 0 is the no-effect control and ±100 the full control effect
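Single-point screen (50 µM final compound) in Neuro2A cells stimulated 20 min with 6 nM IGF at 37 deg C. After lysis, Ser473-phosphorylated Akt read by HTRF (ex 330 nm, em 615/665 nm) as the 665/615 ratio.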
TSHR antag: human thyrotropin receptor antagonism | TSHR-expressing cells, TSH-stimulated cAMP HTRF, 2 h; stronger effect = lower value | 330,000 tested, 0.2% active | activity change, negative = inhibition, % at 11.5 µM;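 active means activity change below a set negative limit, meaning inhibition stronger than a set level, cut at about -70% in these data; inconclusive means activity change between two set negative limits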; further: on the % scale 0 is the no-effect control and ±100 the full control effect
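TSHR-expressing cells were treated with compounds, then stimulated with TSH at EC80 (4nM final) for 2 hours at 37 deg C. Cellular cAMP was measured by HTRF competition between lysate cAMP and cAMP-d2 for a cryptate-labelled anti-cAMP antibody.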
Starred values were filed as active, the others as inactive; i = inactive; ? = inconclusive; . = no result. Unless noted, the call rests on the fitted dose curve.

canonical_smiles | Rango dissoc inh | p53 reactivator | Rango-impB inh | Akt phos inh | TSHR antag
S=c1[nH]nc(-c2ccccc2)n1C1C=CCCC1 (configuration not stated) | 11% | 6% | -1% | i | -71*
S=c1[nH]nc(-c2ccccc2)n1CC1CCCO1 (configuration not stated) | 1% | . | -3% | -99%* | .
S=c1[nH]nc(-c2cccnc2)n1C1CCCCC1 | 8% | 23% | -5% | i | -4
OCCC1CN(Cc2cnc(-c3cccc4ccccc34)nc2)CCN1C1CCCCC1 (configuration not stated) | -12% | -3% | 0% | i | 4
CC1CC(C)CN(C(=O)CN2C(=O)NC3(CCCCCC3)C2=O)C1 (configuration not stated) | 0% | 2% | -1% | i | -14
COc1ccc(N2C(=O)c3ccccc3NC2c2ccc(OC)c(COc3ccccn3)c2)cc1 (configuration not stated) | -5% | ? | 1% | i | 7
COc1ccc(N2C(=O)c3ccccc3NC2c2ccc(OC)c(CSc3ccccn3)c2)cc1 (configuration not stated) | 6% | 9% | -2% | -92%* | 0
COc1ccc(-c2noc(-c3ccccc3C(=O)NCc3ccco3)n2)cc1OC | 14% | -15% | -3% | i | -10
COc1ccc(-c2noc(-c3ccccc3C(=O)NCc3ccco3)n2)cc1 | 1% | 18% | -1% | -110%* | -17
COc1cccc(NC(=O)c2ccccc2-c2nc(-c3ccc(Cl)cc3)no2)c1 | -11% | ? | -4% | -109%* | -19
COc1cccc(NC(=O)c2ccccc2-c2nc(-c3ccccc3)no2)c1 | 0% | -3% | 1% | i | -12
CCOc1ccc(N(C(=O)CNC(=O)c2ccco2)C(C(=O)NC2CCCC2)c2cccnc2)cc1 (configuration not stated) | 4% | 3% | 5% | i | 3
COc1ccc(S(=O)(=O)Nc2c(C)cccc2C)cc1-n1cnnn1 | 7% | -4% | -3% | i | -13
O=C(CSc1ccccn1)Nc1cccc2ccccc12 | -5% | -1% | 0% | i | -116*
CCOC(=O)C1CCN(c2nc(-c3ccc(Br)cc3)cs2)CC1 | . | . | . | . | -19
COc1ccc(C(=O)COC(=O)c2cccs2)cc1 | 3% | ? | 2% | i | .
O=C(COC(=O)c1cccs1)c1ccccc1 | 3% | ? | -5% | -127%* | -12
CC[C@@H](C(=O)[C@@H](C)[C@@H](O)[C@H](C)CCc1ccc(C)c(O)c1C(=O)O)[C@H]1O[C@](CC)([C@H]2CC[C@](O)(CC)[C@H](C)O2)C[C@@H]1C | 1% | . | 2% | i | -84*
CC[C@@H](C(=O)[C@@H](C)[C@@H](O)[C@H](C)[C@@H]1O[C@@H]([C@@H](CC)C(=O)O)CC[C@@H]1C)[C@H]1O[C@]2(C=C[C@@H](O)[C@]3(CC[C@@](C)([C@H]4CC[C@](O)(CC)[C@H](C)O4)O3)O2)[C@H](C)C[C@@H]1C | 6% | . | 3% | i | .
O=C(O)COc1ccc(/C=N/NC(=O)c2ccc(-c3csc(Nc4ccc(Cl)cc4)n3)cc2)cc1 | -15% | -1% | 52µM* | i | 5
CC(=O)Nc1ccc(C(=O)COC(=O)C2CC2C)c(F)c1 (configuration not stated) | 12% | ? | 1% | i | -1
O=C(O)c1cnc(-c2ccccc2)nc1C(F)(F)F | 1% | 4% | 0% | i | -8
Cc1ccc(CCNC(=O)C2CCN(S(=O)(=O)c3cccc4cccnc34)CC2)cc1 | 22% | -9% | 1% | i | -107*
Cc1ccc2oc3nc(C)c(C(=O)Nc4cccc(C(F)(F)F)c4)cc3c(=O)c2c1 | -3% | 9% | -3% | -93%* | -4
C[C@@](Cc1ccccc1)(C(=O)O)N1C(=O)c2ccc(C(=O)O)cc2C1=O | . | . | . | . | 0
COc1ccc2nc(SC)cc(C)c2c1 | -15% | 2% | 2% | i | 5

Of the compounds above, these contain a CF3 group:
canonical_smiles | Rango dissoc inh | p53 reactivator | Rango-impB inh | Akt phos inh | TSHR antag
O=C(O)c1cnc(-c2ccccc2)nc1C(F)(F)F | 1% | 4% | 0% | i | -8
Cc1ccc2oc3nc(C)c(C(=O)Nc4cccc(C(F)(F)F)c4)cc3c(=O)c2c1 | -3% | 9% | -3% | -93%* | -4

Single entries from the list.
Reading for CCOc1ccc(N(C(=O)CNC(=O)c2ccco2)C(C(=O)NC2CCCC2)c2cccnc2)cc1 (configuration not stated) in TSHR antag: 3
Reading for COc1ccc(-c2noc(-c3ccccc3C(=O)NCc3ccco3)n2)cc1OC in Rango dissoc inh: 14%
